These results are taken from patent US20070213359A1 (ACADIA Pharmaceuticals Inc., priority 2005, published 2007).

The chains behind the UniProt entries cited, without tags or fusion partners.
UniProt Q92847, whole entry: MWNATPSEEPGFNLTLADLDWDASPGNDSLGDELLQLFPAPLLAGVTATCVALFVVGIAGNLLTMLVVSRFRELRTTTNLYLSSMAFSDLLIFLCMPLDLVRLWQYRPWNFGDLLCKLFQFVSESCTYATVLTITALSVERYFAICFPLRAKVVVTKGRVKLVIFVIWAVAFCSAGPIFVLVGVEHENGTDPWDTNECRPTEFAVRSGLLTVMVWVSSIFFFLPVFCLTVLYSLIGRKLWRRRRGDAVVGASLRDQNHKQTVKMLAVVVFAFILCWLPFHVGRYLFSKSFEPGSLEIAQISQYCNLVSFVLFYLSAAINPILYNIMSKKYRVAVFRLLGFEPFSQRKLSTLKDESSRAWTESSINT

The test has as its target Ghrelin receptor (Homo sapiens, UniProt Q92847). Briefly: Receptor Selection and Amplification Technology (R-SAT) assay. In kind it is cell-based. Details: expressed in transfected cells; host or cells: NIH3T3. The following applies: percent inhibition at saturating ligand, normalized to reference ligand Substance P analog = 100%; read-out: RSAT Eff(%).

For the compound `CC(C)C[C@H](NC(=O)[C@H](CC(C)C)NC(=O)[C@@H](Cc1c[nH]c2ccccc12)NC(=O)[C@H](Cc1ccccc1)NC(=O)[C@@H](Cc1c[nH]c2ccccc12)NC(=O)[C@H](CCC(N)=O)NC(=O)[C@@H](Cc1ccccc1)NC(=O)[C@@H]1CCCN1C(=O)[C@H](CCCCN)NC(=O)[C@@H]1CCCN1C(=O)[C@H](N)CCCNC(=N)N)C(N)=O` [substance P analog, Substance P analog, reference compound], the Emax amounted to 100%.
